Read-outs that look alike come from different tables or passages of the source.
Tests used:
NMDA receptor [1] = assay type: binding, rat
NMDA receptor [2] = molecular target: NMDA receptor (Rattus norvegicus, UniProt P35439+Q00960); assay: biochemical; assay type: binding; set-up: other: test compound in the absence of spermine; concentration at 50% of maximum stimulation; % Sti; spermine = 100; other: with and without spermine; absence of spermine; % STI; absence; conditions: read-out: % Sti

Sequences of proteins named here, by UniProt entry; tags and fusion partners are left off. Residues count along the entry.
UniProt Q00960, 27-1482: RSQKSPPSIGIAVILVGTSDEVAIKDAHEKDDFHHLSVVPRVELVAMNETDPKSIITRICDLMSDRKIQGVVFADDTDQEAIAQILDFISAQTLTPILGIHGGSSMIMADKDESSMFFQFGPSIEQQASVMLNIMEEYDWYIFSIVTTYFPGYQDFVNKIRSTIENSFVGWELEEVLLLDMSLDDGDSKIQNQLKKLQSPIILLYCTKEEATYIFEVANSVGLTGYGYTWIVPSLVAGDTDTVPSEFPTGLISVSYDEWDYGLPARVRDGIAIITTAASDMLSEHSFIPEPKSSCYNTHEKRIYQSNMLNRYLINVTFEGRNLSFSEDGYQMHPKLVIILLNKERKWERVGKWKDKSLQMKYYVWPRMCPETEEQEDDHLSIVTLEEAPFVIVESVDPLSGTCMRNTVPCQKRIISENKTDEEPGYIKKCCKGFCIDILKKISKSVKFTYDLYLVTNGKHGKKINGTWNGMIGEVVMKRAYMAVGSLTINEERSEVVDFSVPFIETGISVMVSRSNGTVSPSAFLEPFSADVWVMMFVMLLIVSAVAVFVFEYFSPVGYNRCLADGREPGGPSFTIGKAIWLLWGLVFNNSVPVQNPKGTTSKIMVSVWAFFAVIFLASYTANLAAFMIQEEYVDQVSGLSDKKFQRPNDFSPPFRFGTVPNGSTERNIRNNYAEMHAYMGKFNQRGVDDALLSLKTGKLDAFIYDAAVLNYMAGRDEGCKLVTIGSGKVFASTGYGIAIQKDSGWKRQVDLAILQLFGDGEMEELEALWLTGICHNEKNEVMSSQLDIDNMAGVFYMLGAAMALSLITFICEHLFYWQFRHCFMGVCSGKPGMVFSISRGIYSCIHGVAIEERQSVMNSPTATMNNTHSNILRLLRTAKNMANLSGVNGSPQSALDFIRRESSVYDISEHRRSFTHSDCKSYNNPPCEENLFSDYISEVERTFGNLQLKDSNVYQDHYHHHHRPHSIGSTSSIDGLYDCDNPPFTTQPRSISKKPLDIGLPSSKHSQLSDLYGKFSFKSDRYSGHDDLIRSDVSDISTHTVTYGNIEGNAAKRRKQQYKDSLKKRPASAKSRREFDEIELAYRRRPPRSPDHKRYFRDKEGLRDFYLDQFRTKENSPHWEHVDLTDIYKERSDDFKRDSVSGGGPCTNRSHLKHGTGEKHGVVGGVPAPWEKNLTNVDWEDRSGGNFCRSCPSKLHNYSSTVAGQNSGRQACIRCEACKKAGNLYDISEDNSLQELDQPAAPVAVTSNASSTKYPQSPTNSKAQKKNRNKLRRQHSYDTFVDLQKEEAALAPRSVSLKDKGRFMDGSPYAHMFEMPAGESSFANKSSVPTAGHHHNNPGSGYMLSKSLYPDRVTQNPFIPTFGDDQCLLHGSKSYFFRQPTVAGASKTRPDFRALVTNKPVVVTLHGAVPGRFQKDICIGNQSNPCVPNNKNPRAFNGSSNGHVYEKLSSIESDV

Compound | % Inh (NMDA receptor [1]) [%] | IC50 (NMDA receptor [1]; read-out: Spermine IC) [µM] | Emax (NMDA receptor [2]) [%] | inhibition of [3H]MK-801 binding produced by maximally effective spermine (NMDA receptor [1]) [%] | IC50 (NMDA receptor [1]; read-out: IC50, inhibition of spermine-enhanced [3H]MK-801 binding) [µM]
CC[C@H](C)[C@H](NC(=O)[C@H](CC(C)C)NC(=O)[C@H](CC(C(=O)O)C(=O)O)NC(=O)[C@H](CCC(N)=O)NC(=O)[C@H](CC(N)=O)NC(=O)[C@H](CC(C(=O)O)C(=O)O)NC(=O)[C@H](CCC(N)=O)NC(=O)[C@H](CC(C)C)NC(=O)[C@H](CC(C(=O)O)C(=O)O)NC(=O)[C@H](CC(C(=O)O)C(=O)O)NC(=O)[C@H](CCC(=O)O)NC(=O)CNC(=O)[C@H](Cc1ccc(O)cc1)NC(C)=O)C(=O)N[C@@H](CCCNC(=N)N)C(=O)N[C@@H](CC(C(=O)O)C(=O)O)C(=O)N[C@@H](CCCCN)C(=O)N[C@@H](CO)C(=O)N[C@@H](CC(N)=O)C(N)=O [Ac-Tyr^o-Con-G, AcY-GEggLQgNQgLIRgKSN] | 73 | 18.3 | 0 |  | 
CC[C@H](C)[C@H](NC(=O)[C@H](CC(C)C)NC(=O)[C@H](CC(C(=O)O)C(=O)O)NC(=O)[C@H](CCC(N)=O)NC(=O)[C@H](CC(N)=O)NC(=O)[C@H](CC(C(=O)O)C(=O)O)NC(=O)[C@H](CCC(N)=O)NC(=O)[C@H](CC(C)C)NC(=O)[C@H](CC(C(=O)O)C(=O)O)NC(=O)[C@H](C)NC(=O)[C@H](CCC(=O)O)NC(=O)CN)C(=O)N[C@@H](CCCNC(=N)N)C(=O)N[C@@H](CC(C(=O)O)C(=O)O)C(=O)N[C@@H](CCCCN)C(=O)N[C@@H](CO)C(=O)N[C@@H](CC(N)=O)C(N)=O [Ala3-Con-G, GEAgLQgNQgLIRgKSN] | 34 ± 9 |  | 0 | 34 | 1.8 ± 0.1
CC[C@H](C)[C@H](NC(=O)[C@H](CC(C)C)NC(=O)[C@H](C)NC(=O)[C@H](CCC(N)=O)NC(=O)[C@H](CC(N)=O)NC(=O)[C@H](C)NC(=O)[C@H](CCC(N)=O)NC(=O)[C@H](CC(C)C)NC(=O)[C@H](CC(C(=O)O)C(=O)O)NC(=O)[C@H](CC(C(=O)O)C(=O)O)NC(=O)[C@H](CCC(=O)O)NC(=O)CN)C(=O)N[C@@H](CCCNC(=N)N)C(=O)N[C@@H](C)C(=O)N[C@@H](CCCCN)C(=O)N[C@@H](CO)C(=O)N[C@@H](CC(N)=O)C(N)=O [Ala7,10,14-Con-G] | 100 | 0.5 | 0 |  | 
CC[C@H](C)[C@H](NC(=O)[C@H](CC(C)C)NC(=O)[C@H](CC(C(=O)O)C(=O)O)NC(=O)[C@H](CCC(N)=O)NC(=O)[C@H](CC(N)=O)NC(=O)[C@H](CC(C(=O)O)C(=O)O)NC(=O)[C@H](CCC(N)=O)NC(=O)[C@H](CC(C)C)NC(=O)[C@H](CC(C(=O)O)C(=O)O)NC(=O)[C@H](CC(C(=O)O)C(=O)O)NC(=O)[C@H](CCC(=O)O)NC(=O)CN)C(=O)N[C@@H](CCCNC(=N)N)C(=O)N[C@@H](C)C(=O)N[C@@H](CCCCN)C(=O)N[C@@H](CO)C(=O)N[C@@H](CC(N)=O)C(N)=O [Alal4-Con-G, GEggLQgNQgLIRAKSN] | 100 | 0.16 ± 0.03 | 0 |  | 
CC[C@H](C)[C@H](NC(=O)[C@H](CC(C)C)NC(=O)[C@H](CC(C(=O)O)C(=O)O)NC(=O)[C@H](CCC(N)=O)NC(=O)[C@H](CC(N)=O)NC(=O)[C@H](CC(C(=O)O)C(=O)O)NC(=O)[C@H](CCC(N)=O)NC(=O)[C@H](CC(C)C)NC(=O)[C@H](CC(C(=O)O)C(=O)O)NC(=O)[C@H](CC(C(=O)O)C(=O)O)NC(=O)[C@H](CCC(=O)O)NC(=O)CNC(=O)[C@@H](N)CC(N)=O)C(=O)N[C@@H](CCCNC(=N)N)C(=O)N[C@@H](CC(C(=O)O)C(=O)O)C(=O)N[C@@H](CCCCN)C(=O)N[C@@H](CO)C(=O)N[C@@H](CC(N)=O)C(N)=O [Asn^o-Con-G, N-GEggLQgNQgLIRgKSN] | 83 | 8.7 | 0 |  | 
CC(C)C[C@H](NC(=O)[C@H](CC(C(=O)O)C(=O)O)NC(=O)[C@H](CC(C(=O)O)C(=O)O)NC(=O)[C@H](CCC(=O)O)NC(=O)CN)C(N)=O [Con-G(1-5), GEggL] | 50 | 7.43 | 0 |  | 
CC[C@H](C)[C@H](N)C(=O)N[C@@H](CCCNC(=N)N)C(=O)N[C@@H](CC(C(=O)O)C(=O)O)C(=O)N[C@@H](CCCCN)C(=O)N[C@@H](CO)C(=O)N[C@@H](CC(N)=O)C(N)=O [Con-G(12-17), IRgKSN] |  |  | 20 |  | 

Reference: patent US6511963B1 (priority 1992, dated 2003)
